PubChem BioAssay AID624151 (Broad Institute, 2012)
Only a part is listed here, and it is no random draw. The source made the active and inactive calls. No stated cut-off is given here; in the data, active means activation above about 52%; inconclusive means no clear call, values can overlap the other calls; inactive means below that.

Assay: mutant p53 pathway re-activators, primary screen, cell-based, SW480, luciferase, single point, HTS (AID 624151)
Conditions: SW480 PUMA-promoter luciferase, p53 mutant reactivation; at 9.98 µM; active compounds read high

SMILES	activation
CN(C(=O)Cc1ccc(Cl)c(Cl)c1)C1CCCCC1N1CCCC1 (stereo unspecified)	inactive: 4.04%
